Measurements as given in PubChem BioAssay AID1508649 (National Center for Advancing Translational Sciences (NCATS), 2021).
The entries are a selection whose mix differs from that of the whole data set. Inconclusive results are not listed. Activity calls are given as the source filed them. How the source made its calls: active means clear falling dose curves in both reporters; inconclusive means both reporters move, but less clearly or upward; inactive means either reporter flat; the % is the NLuc reporter signal.

assay: Cell-based coincidence reporter assay to measure PMP22 gene transcription in S16 Pmp22-F2sN cells - Primary screen; conditions: S16 Pmp22-F2sN Schwann cells (luciferase reporters placed in the Pmp22 gene), FLuc/NLuc coincidence luminescence, 24 h; series mostly up to 57.5 µM; activity change, negative = inhibition: at the top concentration
Excerpt: Assay Provider: Jim Inglese Ph.D. National Center for Advancing Translational Science, National Institutes of Health, Rockville, MD CMT is a heterogeneous group of neurological disorders that affect approximately 1 in 2,500 people. In particular, the most common form of CMT, CMT1A is genetically linked to the duplication of the PMP22 gene which leads to Schwann cell overexpression, thus manifesting itself as a typical case of dose-sensitive diseases. To identify small molecule compounds that can mediate the expression of PMP22 we developed a phenotypic assay screening strategy by utilizing genome editing techniques to construct Schwann cell lines containing novel reporter technology to monitor the transcriptional or translational regulation of PMP22. For high sensitivity we use a bioluminescent reporter system embedded in the 3' UTR of the PMP22 gene (S16(c9) Pmp22-F2sN) to identify compounds that inhibit gene expression. […] We can further discriminate the effect of all transcriptionally active molecules on PMP22 translation or stability with an assay that incorporates a short NLuc peptide (HiBiT) at the C-terminus of expressed PMP22 (S16(f8) PMP22-HiBiT) allowing alpha complementation and luminescence detection of membrane-associated PMP22 protein. These assays were screened against the NCATS Sytravon Library Collection. Miniaturization of these assays to 1536-well plate format for quantitative high throughput screening (qHTS) yielded rich data sets immediately from the qHTS assay (S16(c9) Pmp22-F2sN), when compared with data from a cell viability assay (Cell TiterGlo) to identify compounds that decreased the output signals through cellular toxicity to streamline the selection process of actives for subsequent characterization using the HiBiT assay (S16(f8) PMP22-HiBiT).
Cell-based coincidence reporter assay to measure PMP22 gene transcription in S16 Pmp22-F2sN cells PROTOCOL TABLE (format as described by Inglese J, Shamu CE and Guy RK. 2007) SEQUENCE No. (e.g., 1, 2, 3, etc.); […] (e.g., Cells, Incubation, Reagent, etc.); VALUE and DESCRIPTION. 1. Cells. Add 500-1,000 cells in 4 uL in growth media (DMEM High Glucose, No Phenol Red media + 10% heat-inactivated FBS + 1% Pen/Strep supplemented media) per well into Greiner 1536-well white/solid bottom high base, TC-treated plates. 2. Compounds. Library compounds and controls added at 23nL per well, transferred by Pin Tool. 3. Incubation. Incubate plates at 37C, 5% CO2, 95% RH for 24 h. 4. Reagent. Add 3.5uL Nano-Glo Dual-Luciferase Reporter Assay System reagent 1: Lysis and FLuc reagent per well of Greiner 1536-well plates. 5. Incubation. Incubate plates at room temperature for 10 min., protect from light. 6. Detector. FLuc luminescence measured using CCD-based camera (Viewlux). 7. Reagent. Add 3.5uL Nano-Glo Dual-Luciferase Reporter Assay System reagent 2: Stop&Glo reagent per well of Greiner 1536-well plates. 8. Incubation. Incubate plates at room temperature for 10 min., protect from light. 9. Detector. NLuc luminescence measured using CCD-based camera (Viewlux). NOTES (numbers refer to Sequence numbers above; values are from representative experiments) 6. Luminescence Read #1 (FLuc): Clear filter; Exposure = 10 sec, Gain = High, Speed = Slow, Binning = 2X 9. Luminescence Read #2 (NLuc): Clear filter; Exposure = 1 sec, Gain = High, Speed = Slow, Binning = 2X REFERENCES: 1. Inglese J, Shamu CE and Guy RK, Reporting data from high throughput screening of small molecule libraries, Nature Chemical Biology, 2007, 3(8): 438-441. doi.org/10.1038/nchembio0807-438 2. Yasgar A, Shinn P, Jadhav A, Auld DS, Michael S, Zheng W, Austin CP, Inglese J and Simeonov A, Compound Management for Quantitative High-Throughput Screening. J. Assoc. Lab. Auto., 2008, 13: 79-89. doi: 10.1016/j.jala.2007.12.004
On the % scale 0 is the no-effect control and ±100 the full control effect; potency means the concentration at half of the fitted maximal effect.

| SMILES | activity change, negative = inhibition | Potency |
| --- | --- | --- |
| COc1cc(C(=O)NCC2(N3CCOCC3)CCCCC2)cc(OC)c1OC | inactive: 0.948% | – |
| CN(C)C1(CNC(=O)c2ccc(C(C)(C)C)cc2)CCCCC1 | inactive: -16.7% | – |
| Cc1ccccc1C(=O)NCC1(N(C)C)CCCCC1 | inactive: -21.2% | – |
| CC(C)(C)c1ccc(C(=O)NCC2(N3CCOCC3)CCCCC2)cc1 | – | active: 15 µM |
| O=C(NCC1(N2CCOCC2)CCCCC1)c1ccccc1[N+](=O)[O-] | inactive: -42% | – |
| O=C(NCC1(N2CCOCC2)CCCCC1)c1ccc([N+](=O)[O-])cc1 | inactive: -13.1% | – |
| O=C(NCC1(N2CCOCC2)CCCCC1)c1ccccc1 | inactive: -7.39% | – |
| O=C(NCC1(N2CCOCC2)CCCCC1)c1ccccc1Br | inactive: 0.029% | – |
| CCOc1ccc(C(=O)NCC2(N3CCOCC3)CCCCC2)cc1 | inactive: -12.5% | – |
| CCCOc1cccc(C(=O)NCC2(N3CCOCC3)CCCCC2)c1 | inactive: -14.4% | – |
